Apparent affinities of Ab-14 variants for a coronavirus HR2 peptide

Source: Engelhart et al. 2022 (doi:10.1038/s41597-022-01779-4), MIT Lincoln Laboratory and A-Alpha Bio; data file from the FLAb repository.

Antigen: PDVDLGDISGINAS, a 14-residue peptide of the SARS-CoV-2 spike HR2 region.

Parent scFv Ab-14: VH joined to VL by a 15-residue (Gly4Ser)3 linker. Changes lie in the light chain CDRs alone.
VH: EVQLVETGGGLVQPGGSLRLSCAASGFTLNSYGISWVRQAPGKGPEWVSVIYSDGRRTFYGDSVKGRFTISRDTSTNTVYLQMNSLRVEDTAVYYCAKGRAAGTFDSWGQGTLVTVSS
VL: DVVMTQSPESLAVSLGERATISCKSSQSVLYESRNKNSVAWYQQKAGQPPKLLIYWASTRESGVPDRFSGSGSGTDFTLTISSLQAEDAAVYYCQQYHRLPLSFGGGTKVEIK

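Phage display of a naive human antibody library on the peptide gave the parent. The library (AAYL50) carries one to three amino acid substitutions per variant, with no insertions or deletions. Affinity was read by AlphaSeq, a pooled yeast mating assay with surface-displayed partners. After mating in shaken culture at 30 °C for 16 h, diploids were selected and their barcode pairs sequenced. Read counts were normalised to the haploid input and turned into Kd by a linear fit to BCL2-family pairs of known affinity, for each replicate. Each pool was mated in three replicate cultures.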

Substitutions are numbered in sequence along the VL above, starting at 1 (not Kabat).
Scale: log10 of Kd in nM, estimated from mating counts; low values are strong binders.
Averages over replicates are reported, and they cover detected replicates only.
Where no diploid with the target was found in any replicate, the entry reads "nd": below detection, most likely a poor binder, though not proof of it.
Nonspecific signal, from three strains lacking the peptide, appeared in 18% of pairings of library AAYL50, centred on 4.19 (5% of these signals below 2.99); values are not corrected for it.

changes | log10 Kd (nM), mean | detected
N37C+S38T+W56G | 1.06 | 3/3
Q27I+V39F+P101R | nd | 0/3
Y31C+S33L+R34N | 2.83 | 3/3
R34Q+V39R+Q96F | 4.68 | 2/3
S28N+L30N+S58Y | 1.22 | 3/3
S26D+N35T+S103C | 1.70 | 3/3
S25H+N37V+Q95C | 3.24 | 1/3
V29T+A40I+Y97L | 3.52 | 1/3
A40R+S58K+R99A | 4.04 | 2/3
S25Y+Y97C+L100E | 1.23 | 3/3
S26F+S38D | 3.44 | 3/3
S38V+W56K+L100A | nd | 0/3
K24L+R34Y+S58T | 1.36 | 3/3
K24G+Q27W+E61Y | 2.33 | 3/3
N37A+L100T | 2.11 | 3/3
Q27S+S62Y+L102S | nd | 0/3
L30V+K36L+H98P | 4.32 | 1/3
S26C+V29A+P101L | nd | 0/3
E32V+S33Q+T59H | 2.81 | 3/3
K24N+S62F+L100M | 3.92 | 3/3
S33G+N37S+S58G | 0.85 | 1/3
W56E+L100T+P101E | 0.67 | 3/3
Q27N+L30R+E61S | 2.50 | 3/3
W56M+R60C+S62P | nd | 0/3
S33C+R60I+P101N | nd | 0/3
E32W+S62D+L102M | 2.40 | 3/3
Q27W+A40N+L100T | nd | 0/3
L30M+N35G+R60S | 3.90 | 3/3
L30D+S103P | nd | 0/3
R60K+E61G+H98C | nd | 0/3
L30Q+K36E | 1.92 | 3/3
E32Q+T59K+Q96E | nd | 0/3
L30P+Y31S+Q96N | 1.34 | 3/3
S26M+S28N+R60W | 4.28 | 2/3
S26T+N35V+A40E | nd | 0/3
R34E+A40R+Q96Y | 5.08 | 2/3
N35D+K36P+E61H | 1.31 | 3/3
V29N+N37H+R99Y | 3.04 | 2/3
A57R+Q96S+S103R | 3.25 | 3/3
E32D+S58Q+P101T | 2.11 | 3/3
A40S+E61M+H98R | 2.72 | 1/3
S62W+Y97S+R99V | 4.79 | 1/3
S33E+N35D+S38W | nd | 0/3
A57E+R60A+Q95G | nd | 0/3
K24I+V29D+L102S | nd | 0/3
S38V+R99K | 4.71 | 1/3
N35G+V39L+S58G | 1.17 | 3/3
S38W+L100I+P101K | 4.78 | 1/3
R34L+V39D+S62H | 3.83 | 1/3
K24I+L100M+P101N | 4.66 | 1/3
K24S+Q27F+S28G | 1.55 | 3/3
A40Q+S58W+L102N | nd | 0/3
S58G+R99D+L102H | nd | 0/3
N35G+A40W+P101I | nd | 0/3
S25L+R60L+R99E | 0.58 | 3/3
S28E+R34D+H98V | 0.82 | 3/3
Y31E+A40E+H98N | nd | 0/3
S33T+W56K+S58L | 2.26 | 3/3
S33F+K36R+N37Y | 1.50 | 3/3
L30N+T59Q+Q95W | 3.64 | 1/3
V29T+A57K+L102P | 3.68 | 2/3
L30T+V39L+S103A | 1.35 | 3/3
K36T+S58N+T59V | 0.07 | 3/3
Y31Q+R60T+L102H | nd | 0/3
Q27C+A57Y+P101A | 3.66 | 2/3
L30P+K36I+A40F | nd | 0/3
S62R+H98R+P101C | 1.10 | 3/3
Y31K+T59S+S103H | nd | 0/3
S25N+T59V+Y97P | 4.00 | 1/3
S25I+S26T+E61N | 0.11 | 3/3